Earlier results as cited in US20070237796A1, “Stable High Pl Hydrogel Compositions” (priority 2003, published 2007).

**Q.** Which pKa does the source give for `COOCC(O)COOC` here?
**A.** 13.7
